Protein sequences, listed by entry. Tags and fused reporters are not part of them. Residues count along the entry.
UniProt Q12809, whole entry: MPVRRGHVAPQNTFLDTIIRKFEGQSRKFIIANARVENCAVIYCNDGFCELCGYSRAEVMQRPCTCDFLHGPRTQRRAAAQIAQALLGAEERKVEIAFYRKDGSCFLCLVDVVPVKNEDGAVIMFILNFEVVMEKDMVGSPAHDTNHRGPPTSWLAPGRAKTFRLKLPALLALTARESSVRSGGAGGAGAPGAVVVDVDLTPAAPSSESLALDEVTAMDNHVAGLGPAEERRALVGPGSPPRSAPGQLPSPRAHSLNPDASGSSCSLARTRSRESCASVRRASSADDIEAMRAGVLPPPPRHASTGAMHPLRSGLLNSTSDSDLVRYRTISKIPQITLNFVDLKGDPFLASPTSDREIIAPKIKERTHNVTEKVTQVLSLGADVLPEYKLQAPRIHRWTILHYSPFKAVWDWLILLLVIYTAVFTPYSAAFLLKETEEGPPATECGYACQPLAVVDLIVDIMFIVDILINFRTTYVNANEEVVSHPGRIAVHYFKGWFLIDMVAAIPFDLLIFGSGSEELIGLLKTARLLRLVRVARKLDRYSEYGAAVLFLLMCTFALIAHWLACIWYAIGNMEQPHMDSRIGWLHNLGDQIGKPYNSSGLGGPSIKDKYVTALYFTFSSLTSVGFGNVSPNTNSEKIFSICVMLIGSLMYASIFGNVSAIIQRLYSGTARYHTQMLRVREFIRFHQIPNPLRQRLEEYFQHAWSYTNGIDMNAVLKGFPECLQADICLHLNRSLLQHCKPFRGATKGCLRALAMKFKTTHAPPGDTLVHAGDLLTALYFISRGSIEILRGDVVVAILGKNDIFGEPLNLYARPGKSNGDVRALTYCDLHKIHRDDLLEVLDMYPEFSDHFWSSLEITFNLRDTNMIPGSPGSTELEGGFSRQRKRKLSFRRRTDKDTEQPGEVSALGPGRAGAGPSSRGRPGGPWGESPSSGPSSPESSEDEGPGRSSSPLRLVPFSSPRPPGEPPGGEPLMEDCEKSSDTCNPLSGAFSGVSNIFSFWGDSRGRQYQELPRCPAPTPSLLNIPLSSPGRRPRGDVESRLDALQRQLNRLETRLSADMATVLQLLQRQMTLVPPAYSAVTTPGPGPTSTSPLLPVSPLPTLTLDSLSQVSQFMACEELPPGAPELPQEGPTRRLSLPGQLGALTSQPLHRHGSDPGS
UniProt A0A8I3N8W8, 1-676: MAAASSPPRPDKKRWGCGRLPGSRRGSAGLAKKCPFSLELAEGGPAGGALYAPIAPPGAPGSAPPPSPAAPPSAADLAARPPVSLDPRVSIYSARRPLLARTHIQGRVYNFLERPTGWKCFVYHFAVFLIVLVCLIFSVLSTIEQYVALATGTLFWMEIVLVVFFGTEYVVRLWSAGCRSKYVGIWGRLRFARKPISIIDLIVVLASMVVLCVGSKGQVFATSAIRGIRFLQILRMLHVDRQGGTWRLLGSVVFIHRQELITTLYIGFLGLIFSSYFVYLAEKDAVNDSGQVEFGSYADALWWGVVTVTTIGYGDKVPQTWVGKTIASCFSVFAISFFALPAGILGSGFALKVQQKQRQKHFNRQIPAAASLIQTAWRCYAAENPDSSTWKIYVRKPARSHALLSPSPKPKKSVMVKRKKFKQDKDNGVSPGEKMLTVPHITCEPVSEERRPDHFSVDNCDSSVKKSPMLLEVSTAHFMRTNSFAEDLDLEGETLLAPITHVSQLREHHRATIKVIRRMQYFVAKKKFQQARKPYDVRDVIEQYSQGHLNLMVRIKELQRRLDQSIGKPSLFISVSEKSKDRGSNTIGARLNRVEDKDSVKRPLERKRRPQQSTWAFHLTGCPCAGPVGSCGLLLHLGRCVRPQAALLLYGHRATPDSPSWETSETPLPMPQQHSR

In patent US6602880B2, “3-phenyl-3,7-diazabicyclo[3.3.1] nonane compounds, process for preparing them, pharmaceutical compositions containing them and use thereof to inhibit cardiac arrhythmia” (priority 2001, dated 2003):

Legend:
iKr (HERG) = iKr (HERG) (Homo sapiens, UniProt Q12809); assay: Blocking action on rapid delayed rectifier potassium current iKr (HERG), HEK293 cells stably transfected; conditions: read-out: IC50 % - iKr; HEK293 cells stably transfected with HERG; tested form: hydrogen tartrate
Protocol: The iKr (HERG) can be measured selectively in the manner stated below: to measure the iKr, a cell line (human embryonal kidney cells, HEK293; see e.g. American Tissue Culture Collection (=ATCC) No.: CRL-1573) is used, which is stably transfected with the gene for the iKr (HERG) (cf. Z. Zhou et al., Biophysical Journal 74(1) (1998) 230-241). […] The iKr is determined using the current amplitude at −40 mV holding potential immediately after a 500 ms pulse protocol of −75 mV holding potential at most +10 mV depolarisation. That substance concentration at which 50% of the maximum current is blocked (IC50 %) is determined from the inhibitions of the corresponding current at different substance concentrations.

iKs = iKs (Canis lupus familiaris, UniProt A0A8I3N8W8); assay: Blocking action on slow delayed rectifier potassium current iKs, whole-cell patch-clamp on dog cardiac muscle cells; type: cell-based; conditions: read-out: IC50 % - iKs; dog left ventricle cardiac muscle cells; 1 μM nisoldipine and 2 μM E-4031 added; holding potential -40 mV; tested form: hydrogen tartrate
Protocol: The iKs can be measured selectively in the manner described below: the hearts are quickly removed from anaesthetised dogs and a muscle section from the left ventricle is perfused with collagenase-containing solution via an arterial vessel. The well-dissociated tissue is comminuted and the individualised cardiac muscle cells are investigated electrophysiologically using the “whole-cell patch-clamp” method (cf. O. P. […] The iKs is then determined using the current amplitude immediately after a 5-second pulse protocol of -40 mV holding potential at most +50 mV depolarisation. The iKr (HERG) can be measured selectively in the manner stated below: to measure the iKr, a cell line (human embryonal kidney cells, HEK293; see e.g. American Tissue Culture Collection (=ATCC) No.: CRL-1573) is used, which is stably transfected with the gene for the iKr (HERG) (cf. Z. Zhou et al., Biophysical Journal 74(1) (1998) 230-241). […] The iKr is determined using the current amplitude at -40 mV holding potential immediately after a 500 ms pulse protocol of -75 mV holding potential at most +10 mV depolarisation. That substance concentration at which 50% of the maximum current is blocked (IC50 %) is determined from the inhibitions of the corresponding current at different substance concentrations.

[1] = test system: isolated papillary muscle of the right ventricle of guinea pigs; assay: In vitro functional refractory period on electrically stimulated papillary muscles from guinea-pig hearts; conditions: concentration prolonging FRP by 12 milliseconds; stimulation 3 Hz; 20 minutes after addition; tested form: hydrogen tartrate

- IC50 (iKs): 700 nM
Structure (SMILES): CCCCN1CC2CN(c3ccc(C(C)=O)cc3)CC(C1)C21CCCC1
- IC50 (iKr (HERG)): 90 nM
- Antiarrhythmic action FRP-EC+12 ms [1]: 0.6 µmol/L
